Reference: patent EP0560235B1, “Condensed heterocyclic ketone derivatives, their production and use” (priority 1992, dated 1993)
Read-outs that look alike come from different tables or passages of the source.

Protein sequences, listed by entry. Tags and fused reporters are not part of them. Residues count along the entry.
UniProt P37136, 32-614 limits assumed: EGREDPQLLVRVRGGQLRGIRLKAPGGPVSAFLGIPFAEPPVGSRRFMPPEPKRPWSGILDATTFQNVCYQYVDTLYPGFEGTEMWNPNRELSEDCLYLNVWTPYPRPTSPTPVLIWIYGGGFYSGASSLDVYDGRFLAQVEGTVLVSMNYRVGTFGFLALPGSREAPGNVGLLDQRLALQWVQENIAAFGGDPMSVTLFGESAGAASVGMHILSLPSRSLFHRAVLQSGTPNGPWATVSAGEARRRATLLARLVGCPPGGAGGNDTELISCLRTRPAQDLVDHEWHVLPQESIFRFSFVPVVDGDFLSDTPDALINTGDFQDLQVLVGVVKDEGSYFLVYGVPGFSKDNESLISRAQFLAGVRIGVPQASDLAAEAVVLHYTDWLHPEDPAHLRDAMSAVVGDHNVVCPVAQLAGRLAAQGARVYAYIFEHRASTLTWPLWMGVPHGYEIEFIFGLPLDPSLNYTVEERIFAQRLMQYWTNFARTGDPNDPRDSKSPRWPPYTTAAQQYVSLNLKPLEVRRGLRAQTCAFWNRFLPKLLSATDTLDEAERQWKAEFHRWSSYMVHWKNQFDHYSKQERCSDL
UniProt Q9WTR4, 1-597: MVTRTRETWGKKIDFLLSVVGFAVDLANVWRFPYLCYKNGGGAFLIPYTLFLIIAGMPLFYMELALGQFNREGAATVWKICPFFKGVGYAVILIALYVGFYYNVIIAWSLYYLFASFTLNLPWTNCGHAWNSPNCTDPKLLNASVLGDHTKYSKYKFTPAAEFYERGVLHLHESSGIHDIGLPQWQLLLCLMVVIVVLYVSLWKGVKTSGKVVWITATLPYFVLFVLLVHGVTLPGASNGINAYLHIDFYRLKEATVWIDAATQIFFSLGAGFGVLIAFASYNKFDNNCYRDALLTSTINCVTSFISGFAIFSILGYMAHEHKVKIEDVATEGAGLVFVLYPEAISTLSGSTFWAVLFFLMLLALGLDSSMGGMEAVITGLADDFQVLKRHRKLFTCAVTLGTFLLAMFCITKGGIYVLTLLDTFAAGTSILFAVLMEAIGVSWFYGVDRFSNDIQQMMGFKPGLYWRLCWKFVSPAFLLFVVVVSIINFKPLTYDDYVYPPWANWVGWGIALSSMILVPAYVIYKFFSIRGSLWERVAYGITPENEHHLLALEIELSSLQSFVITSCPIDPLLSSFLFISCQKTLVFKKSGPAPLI
UniProt P31652, whole entry: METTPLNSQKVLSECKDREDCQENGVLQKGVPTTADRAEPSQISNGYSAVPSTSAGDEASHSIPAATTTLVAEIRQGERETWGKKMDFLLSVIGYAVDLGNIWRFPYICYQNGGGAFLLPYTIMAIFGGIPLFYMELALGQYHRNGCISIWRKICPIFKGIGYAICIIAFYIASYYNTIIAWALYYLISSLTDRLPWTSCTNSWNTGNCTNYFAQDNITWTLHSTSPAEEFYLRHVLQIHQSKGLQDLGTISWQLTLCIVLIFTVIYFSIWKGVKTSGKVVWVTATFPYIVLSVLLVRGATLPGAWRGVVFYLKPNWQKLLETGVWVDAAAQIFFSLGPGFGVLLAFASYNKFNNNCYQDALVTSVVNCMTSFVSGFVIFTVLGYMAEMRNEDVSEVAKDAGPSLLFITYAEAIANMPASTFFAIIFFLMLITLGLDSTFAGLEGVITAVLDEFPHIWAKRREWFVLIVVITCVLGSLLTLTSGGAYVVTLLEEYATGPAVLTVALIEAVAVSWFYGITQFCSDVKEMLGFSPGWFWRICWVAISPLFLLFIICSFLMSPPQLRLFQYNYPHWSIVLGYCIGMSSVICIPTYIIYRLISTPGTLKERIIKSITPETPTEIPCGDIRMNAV

Key:
cholinesterase = cholinesterase (Rattus norvegicus, UniProt P37136); experiment: Cholinesterase inhibitory activity assayed with (acetyl-[3H])-acetylcholine, S1 fraction of cerebral cortex homogenate; type: biochemical; details: read-out: Acetylcholinesterase inhibitory activity I C50, S1 fraction of male Wistar rat cerebral cortex homogenate, (acetyl-[3H])-acetylcholine substrate, 30 minutes incubation
[1] = biological target: norepinephirine(NE) uptake (Rattus norvegicus, UniProt Q9WTR4); experiment: Monoamine uptake into crude synaptosomal preparations (P2) of cerebral cortex and hippocampus, [3H]-NE; type: biochemical, Rats; details: read-out: Monoamine reuptake inhibitory activity IC50 NE, [3H]-NE 11 nM, 37°C, tested form: 3HCl·3/2H2O
serotonin (5-HT) uptake = serotonin (5-HT) uptake (Rattus norvegicus, UniProt P31652); experiment: Monoamine uptake into crude synaptosomal preparations (P2) of cerebral cortex and hippocampus, [3H]-5-HT; type: biochemical, Rats; details: read-out: Monoamine reuptake inhibitory activity IC50 5-HT, [3H]-5-HT 10 nM, 37°C, tested form: 3HCl·3/2H2O

Compound | IC50 (cholinesterase) [nM] | IC50 (cholinesterase; tested form: 2HCl, hemihydrate) [nM] | other results
O=C(CCN1CCN(Cc2ccccc2)CC1)c1ccc2c(c1)CCNCC2 |  |  | IC50 (cholinesterase; tested form: 3HCl·2H2O): 49.3 nM
O=C(CCN1CCN(C(c2ccccc2)c2ccccc2)CC1)c1ccc2c(c1)CCN(Cc1ccccc1)CC2 | 52.6 |  | 
O=CN1CCCc2cc(C(=O)CCN3CCN(Cc4ccccc4)CC3)ccc21 |  | 59.9 | 
O=C(CCN1CCN(Cc2ccccc2)CC1)c1ccc2c(c1)CCCN2 |  |  | IC50 (cholinesterase; tested form: 3HCl·H2O): 163 nM
O=C(CCN1CCN(Cc2ccccc2)CC1)c1ccc2c(c1)CCN(Cc1cccc(O)c1)CC2 |  |  | IC50 (cholinesterase; tested form: 3HCl·3/2H2O): 60.2 nM; IC50 [1]: 359 nM; IC50 (serotonin (5-HT) uptake): 41.3 nM
CC(=O)N1CCc2ccc(C(=O)CCN3CCN(Cc4ccccc4)CC3)cc2CC1 |  |  | IC50 (cholinesterase; tested form: 2HCl, dihydrate): 119 nM
O=C(CCN1CCN(Cc2ccccc2)CC1)c1ccc2c(c1)CCN(Cc1ccccc1)CC2 |  |  | IC50 (cholinesterase; tested form: 3HCl): 49 nM
O=CN1CCCc2ccc(C(=O)CCN3CCN(Cc4ccccc4)CC3)cc21 |  | 118 | 
O=CN1CCCc2ccc(C(=O)CCN3CCN(Cc4ccccc4)CC3)cc2C1 |  | 171 | 
COC(=O)N1CCc2ccc(C(=O)CCN3CCN(Cc4ccccc4)CC3)cc2CC1 | 169 |  | 
O=CN1CCc2ccc(C(=O)CCN3CCN(Cc4ccccc4)CC3)cc2CC1 | 92.8 |  | 
O=CN1CCc2cc(C(=O)CCN3CCN(Cc4ccccc4)CC3)ccc21 | 15.2 | 15.2 | 
